{"source": "BindingDB's records for doi:10.7270/Q2H70D5W", "about": "(University of Pittsburgh, 2007)", "target": "Gag-Pol polyprotein (Human immunodeficiency virus type 1 group M subtype B (isolate HXB2), UniProt P04585)", "test": "HIV-1 RT RNase H inhibitor potency, dose response, biochemical, probe assessment (AID 652)", "conditions": "pH 8; 23 °C", "data": [{"smiles": "COc1cc(C=CC(=O)CC(=O)C=Cc2ccc(O)c(OC)c2)ccc1O", "note": "[(1E,6E)-1,7-bis(4-hydroxy-3-methoxyphenyl)hepta-1,6-diene-3,5-dione]", "values": [{"measurement": "IC50", "result": 10.3, "unit": "µM"}]}]}
